Molecular target: T1, Tyrosine phenol-lyase (TPL) (Morganella morganii, UniProt J7TAF3)
T1 construct: recombinant TPL from M. morganii ssp. morganii (JCM1672), pET-15b
Type: biochemical

Chains of the proteins cited; added tags and fusions are not shown. Residues count along the entry.
UniProt J7TAF3, 1-456: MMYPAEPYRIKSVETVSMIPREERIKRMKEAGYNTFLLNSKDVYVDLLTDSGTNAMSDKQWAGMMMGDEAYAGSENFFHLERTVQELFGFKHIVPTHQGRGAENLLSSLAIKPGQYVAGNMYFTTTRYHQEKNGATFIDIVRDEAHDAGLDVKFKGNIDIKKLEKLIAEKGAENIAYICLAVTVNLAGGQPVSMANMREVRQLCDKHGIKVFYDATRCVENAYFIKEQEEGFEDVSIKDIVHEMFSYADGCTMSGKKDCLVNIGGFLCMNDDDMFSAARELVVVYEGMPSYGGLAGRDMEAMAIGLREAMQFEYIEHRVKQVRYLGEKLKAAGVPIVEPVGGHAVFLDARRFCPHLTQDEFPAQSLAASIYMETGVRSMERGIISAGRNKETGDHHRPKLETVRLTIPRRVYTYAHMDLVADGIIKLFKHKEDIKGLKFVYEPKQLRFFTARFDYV

O=c1c(O)c(-c2cc(O)c(O)c(O)c2)oc2cc(O)cc(O)c12 [myricetin]
recombinant TPL assay at 500 μM inhibitor, phenol by LC-MS: structural analogs of quercetin, including taxifolin, kaempferol, luteolin, and myricetin, significantly inhibited TPL-catalyzed phenol production
